Values of other authors, collected in paper PMC9816206 (Archives of Toxicology, 2022).

Test system: HSEC
Conditions: PAs metabolized by HepaRG human hepatocyte cells in Transwell co-culture; ref Lu et al. [2019]; cited from earlier work

For retrorsine, the “cytotoxicity in HSEC” value is given as “concentration-dependent cytotoxicity”.
